Earlier results in US11022605B2 (priority 2016, dated 2021).

Test system: lung compartment
Conditions: CCA; cited from earlier work

Substance: naphthaquinone
- effect of reactive metabolite generated in the liver: gluthathione depletion and loss of viability in the lung compartment
